The results in this text go back to patent US20040053822A1, “Inducing cellular immune responses to mage2/3 using peptide and nucleic acid compositions” (priority 2002, published 2004).

Protein sequences, listed by entry. Tags and fused reporters are not part of them. Lines headed by an entry give the natural chain unless they say otherwise; changes in a name come on top. Residues count along the entry.
UniProt P01903, 26-254 limits assumed: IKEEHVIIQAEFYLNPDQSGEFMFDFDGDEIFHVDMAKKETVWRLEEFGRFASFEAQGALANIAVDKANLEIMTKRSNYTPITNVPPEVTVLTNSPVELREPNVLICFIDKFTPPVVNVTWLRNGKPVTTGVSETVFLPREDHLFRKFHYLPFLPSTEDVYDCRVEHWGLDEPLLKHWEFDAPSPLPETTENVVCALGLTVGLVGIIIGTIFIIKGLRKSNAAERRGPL
UniProt P04439, 25-365: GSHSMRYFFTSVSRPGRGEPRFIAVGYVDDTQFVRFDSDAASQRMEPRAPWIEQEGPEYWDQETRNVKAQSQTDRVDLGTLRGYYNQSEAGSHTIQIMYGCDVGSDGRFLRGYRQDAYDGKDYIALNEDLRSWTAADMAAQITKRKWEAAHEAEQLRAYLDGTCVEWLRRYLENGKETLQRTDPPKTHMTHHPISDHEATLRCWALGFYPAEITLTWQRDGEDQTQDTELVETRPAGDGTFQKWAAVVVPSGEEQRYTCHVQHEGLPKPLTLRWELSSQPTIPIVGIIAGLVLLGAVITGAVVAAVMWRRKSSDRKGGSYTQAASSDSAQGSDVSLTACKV

Assay [1] deals with HLA-DRB1*0301 (DR3) (Homo sapiens, UniProt P01903+P01911, A100K/A102G/A103R/A169T/F55Y/I96L/K41T/L162R/M171V/P40S/Q125H/Q178H/Q39Y/R42S/S66N/T106N/T262R/W38E/Y61H). The experiment in a line: Purified HLA class II peptide binding assay, DRB1*0301.
For assay [2], the system named is A3-supertype alleles (A*0301, A*1101, A*3101, A*3301, and A*6801). The experiment in a line: A3-supertype cross-reactive binding (five alleles). Details: species or system human.
Assay [3] deals with HLA-A*1101 (Homo sapiens, UniProt P04439, A114D/D185E/E176A/F33Y/L180Q/S129P/T187R). The experiment in a line: Purified HLA class I peptide binding assay, A*1101. The note with it: binding affinity, HLA-A3 supermotif-bearing peptides.
Assay [4] addresses HLA-A*3301 (Homo sapiens, UniProt P04439, A270S/D185E/E176V/E277Q/E87N/F33T/G231S/H175R/I121M/I218V/I322F/K168Q/K210R/L300P/L318F/M331R/P217A/Q86R/Q94H/R138Q/T323A/T345S/T97I/V358M/Y195H). The experiment in a line: Purified HLA class I peptide binding assay, A*3301. The note with it: binding affinity, HLA-A3 supermotif-bearing peptides.
For assay [5], the target named is HLA-A*3101 (Homo sapiens, UniProt P04439, A270S/D185E/E176V/E277Q/F33T/G231S/G80R/H175R/I121M/I218V/I322F/K168Q/L300P/L318F/M331R/P217A/Q94H/R138Q/T323A/T345S/T97I/V358M). As to the kind of experiment: Purified HLA class I peptide binding assay, A*3101. The conditions noted are these: binding affinity, HLA-A3 supermotif-bearing peptides.
For assay [6], the target named is HLA-A*6801 (Homo sapiens, UniProt P04439, A269V/D185E/E176V/E277Q/E87N/F33Y/G231S/I121M/I166T/I218V/L180W/L300P/L318F/N151K/P208A/P217A/Q86R/R169H/T345S). The experiment in a line: Purified HLA class I peptide binding assay, A*6801.
The target in assay [7] is HLA-A*0301 (Homo sapiens, UniProt P04439). The experiment in a line: Purified HLA class I peptide binding assay, A*0301. The note with it: binding affinity, HLA-A3 supermotif-bearing peptides.
Where [8] appears, read: Mage 2/3 DR motif peptides, unit not given.
Where [9] appears, read: binding affinity, HLA-A3 supermotif-bearing peptides, read-out: A*6801 nM.

Structures are written as SMILES. Like-named read-outs stand apart in the source and are kept apart here.

Take `CC[C@H](C)[C@H](NC(=O)[C@H](CCCCN)NC(=O)[C@H](CCC(=O)O)NC(=O)[C@@H](N)CCC(=O)O)C(=O)N[C@@H](Cc1c[nH]c2ccccc12)C(=O)N[C@@H](CCC(=O)O)C(=O)N[C@@H](CCC(=O)O)C(=O)N[C@@H](CC(C)C)C(=O)N[C@@H](CO)C(=O)N[C@@H](CCSC)C(=O)N[C@@H](CC(C)C)C(=O)N[C@@H](CCC(=O)O)C(=O)N[C@H](C(=O)N[C@@H](Cc1ccccc1)C(=O)N[C@@H](CCC(=O)O)C(=O)O)C(C)C`: the DR3 binding data in assay [1] (setting [8]) and in assay [1] (Mage 2 DR super motif peptides (Table XIX A)) was 0.0130 throughout.
In assay [1] (setting [8]), `CC[C@H](C)[C@H](NC(=O)[C@H](CCC(N)=O)NC(=O)[C@H](CC(N)=O)NC(=O)[C@H](CC(=O)O)NC(=O)CNC(=O)[C@H](CC(C)C)NC(=O)[C@H](CC(C)C)NC(=O)CNC(=O)[C@H](CC(=O)O)NC(=O)[C@H](Cc1ccc(O)cc1)NC(=O)[C@H](CO)NC(=O)[C@H](CC(C)C)NC(=O)CNC(=O)[C@H](CC(C)C)NC(=O)[C@@H](N)CS)C(=O)O` returned a DR3 binding data of −0.0025.
Consider `CSCC[C@H](NC(=O)[C@@H](N)CO)C(=O)N[C@@H](CC(C)C)C(=O)N[C@@H](CCC(=O)O)C(=O)N[C@H](C(=O)N[C@@H](Cc1ccccc1)C(=O)N[C@@H](CCC(=O)O)C(=O)NCC(=O)N[C@@H](CCCCN)C(=O)O)C(C)C`, for which, in assay [2], the “No. of A3 Alleles Crossbound” value was determined as 4. Moreover, the IC50 amounted to 3.8 nM in assay [3], 387 nM in assay [4] and 120 nM in assay [5].
Turning to `CC[C@H](C)[C@H](NC(=O)[C@@H](NC(=O)[C@H](C)N)C(C)C)C(=O)N[C@@H](CCC(=O)O)C(=O)N[C@H](C(=O)N[C@@H](CO)C(=O)N[C@@H](Cc1ccc(O)cc1)C(=O)N[C@H](C(=O)N[C@@H](CCCCN)C(=O)O)C(C)C)[C@@H](C)O`, in assay [2], the “No. of A3 Alleles Crossbound” value turned out to be 3. The IC50 was 63 nM in assay [3], more than 10000 nM in assay [4] and more than 10000 nM in assay [5].
Regarding `CC[C@H](C)[C@H](NC(=O)[C@@H](NC(=O)[C@@H](NC(=O)[C@H](CO)NC(=O)[C@H](Cc1ccccc1)NC(=O)[C@H](CO)NC(=O)[C@@H](N)CO)[C@@H](C)O)[C@@H](C)O)C(=O)N[C@@H](CC(N)=O)C(=O)N[C@@H](CCCCN)C(=O)O`, the IC50 is 26 nM in assay [6] (setting [9]) and more than 10000 nM in assay [4].
As for `CC[C@H](C)[C@H](NC(=O)[C@@H](NC(=O)[C@@H](NC(=O)[C@H](CO)NC(=O)[C@H](Cc1ccccc1)NC(=O)[C@@H](NC(=O)[C@@H](N)CO)C(C)C)[C@@H](C)O)[C@@H](C)O)C(=O)N[C@@H](CC(N)=O)C(=O)N[C@@H](CCCCN)C(=O)O`, the “No. of A3 Alleles Crossbound” value in assay [2] was determined as 3. The IC50 amounted to 20 nM in assay [7], 8.2 nM in assay [3], 5.7 nM in assay [6] (setting [9]) and 9670 nM in assay [4].
As for `CC[C@H](C)[C@H](N)C(=O)N[C@H](C(=O)N[C@@H](Cc1ccc(O)cc1)C(=O)N1CCC[C@H]1C(=O)N1CCC[C@H]1C(=O)N[C@@H](CC(C)C)C(=O)N[C@@H](Cc1c[nH]cn1)C(=O)N[C@@H](CCC(=O)O)C(=O)N[C@@H](CCCCN)C(=O)O)C(C)C`, in assay [2], the “No. of A3 Alleles Crossbound” value was found to be 3. For the same compound, the IC50 in assay [7] amounted to 42 nM; in assay [3] it was 103 nM; in assay [6] (setting [9]) it was 42 nM; in assay [4], 2990 nM; in assay [5], 857 nM.
For `CC[C@H](C)[C@H](NC(=O)[C@@H](NC(=O)[C@@H]1CCCN1C(=O)[C@H](Cc1ccccc1)NC(=O)[C@@H](NC(=O)[C@@H](N)Cc1ccc(O)cc1)C(C)C)C(C)C)C(=O)N[C@@H](Cc1ccccc1)C(=O)N[C@@H](CO)C(=O)N[C@@H](CCCCN)C(=O)O`, the “No. of A3 Alleles Crossbound” value in assay [2] is given as 3. The IC50 is 24 nM in assay [7], 3 nM in assay [3], 1.7 nM in assay [6] and 2770 nM in assay [5].
`CC[C@H](C)[C@H](NC(=O)[C@H](CCC(N)=O)NC(=O)[C@H](CC(N)=O)NC(=O)[C@H](CC(=O)O)NC(=O)CNC(=O)[C@H](CC(C)C)NC(=O)[C@@H](N)CC(C)C)C(=O)N[C@@H](CCSC)C(=O)N1CCC[C@H]1C(=O)N[C@@H](CCCCN)C(=O)O`: in assay [2], the “No. of A3 Alleles Crossbound” value is reported as 3. For the same compound, the IC50 in assay [7] was 500 nM; in assay [6] (setting [9]) it was 372 nM; in assay [4] it was more than 10000 nM; in assay [5], more than 10000 nM.
Turning to `CC(C)C[C@H](NC(=O)[C@H](CC(C)C)NC(=O)[C@H](CC(C)C)NC(=O)[C@H](Cc1ccccc1)NC(=O)[C@H](Cc1c[nH]cn1)NC(=O)[C@@H](NC(=O)[C@@H](N)CC(C)C)C(C)C)C(=O)N[C@@H](CCCCN)C(=O)N[C@@H](Cc1ccc(O)cc1)C(=O)O`, the “No. of A3 Alleles Crossbound” value in assay [2] turned out to be 2. Moreover, the IC50 in assay [6] (setting [9]) amounted to 8000 nM.
As for `CC[C@H](C)[C@H](NC(=O)[C@@H](NC(=O)[C@@H](NC(=O)[C@H](CO)NC(=O)[C@H](Cc1ccccc1)NC(=O)[C@@H](NC(=O)[C@@H](N)CO)C(C)C)[C@@H](C)O)[C@@H](C)O)C(=O)N[C@@H](CC(N)=O)C(=O)N[C@@H](CCCNC(=N)N)C(=O)O`, the “No. of A3 Alleles Crossbound” value in assay [2] is reported as 5. Moreover, the IC50 in assay [3] worked out at 6.3 nM; in assay [6] (setting [9]) it was 6.7 nM; in assay [4], 88 nM; in assay [5], 62 nM.
For the compound `CC[C@H](C)[C@H](NC(=O)[C@@H](NC(=O)[C@@H](N)[C@@H](C)O)C(C)C)C(=O)N[C@@H](CC(N)=O)C(=O)N[C@@H](Cc1ccc(O)cc1)C(=O)N[C@H](C(=O)N[C@@H](CC(C)C)C(=O)N[C@@H](Cc1c[nH]c2ccccc12)C(=O)N[C@@H](CCCCN)C(=O)O)[C@@H](C)O`, the “No. of A3 Alleles Crossbound” value in assay [2] was 3. The IC50 is 306 nM in assay [7]; 97 nM in assay [3]; 62 nM in assay [6] (setting [9]); more than 10000 nM in assay [4]; 9000 nM in assay [5].
As to `CC[C@H](C)[C@H](NC(=O)[C@@H](NC(=O)[C@@H]1CCCN1C(=O)[C@H](Cc1ccccc1)NC(=O)[C@H](Cc1ccccc1)NC(=O)[C@@H](N)Cc1ccc(O)cc1)C(C)C)C(=O)N[C@@H](Cc1ccccc1)C(=O)N[C@@H](CO)C(=O)N[C@@H](CCCCN)C(=O)O`, the “No. of A3 Alleles Crossbound” value in assay [2] was determined as 3. The IC50 came to 5000 nM in assay [7], 571 nM in assay [6] (setting [9]) and 316 nM in assay [5].
For the compound `CC[C@H](C)[C@H](NC(=O)[C@@H](NC(=O)[C@@H](N)[C@@H](C)O)C(C)C)C(=O)N[C@@H](CC(N)=O)C(=O)N[C@@H](Cc1ccc(O)cc1)C(=O)N[C@H](C(=O)N[C@@H](CC(C)C)C(=O)N[C@@H](Cc1c[nH]c2ccccc12)C(=O)N[C@@H](CCCNC(=N)N)C(=O)O)[C@@H](C)O`, in assay [2], the “No. of A3 Alleles Crossbound” value was 4. The IC50 stood at 262 nM in assay [7]; 77 nM in assay [3]; 15 nM in assay [6] (setting [9]); 433 nM in assay [4]; 720 nM in assay [5].
Take `CC(C)C[C@H](NC(=O)[C@H](CC(C)C)NC(=O)[C@H](CC(C)C)NC(=O)[C@H](Cc1ccccc1)NC(=O)[C@H](Cc1c[nH]cn1)NC(=O)[C@@H](NC(=O)[C@@H](N)CC(C)C)C(C)C)C(=O)N[C@@H](CCCCN)C(=O)O`: in assay [2], the “No. of A3 Alleles Crossbound” value came to 3. The results for the IC50 in assay [3], in assay [4] and in assay [5] were 40 nM, more than 10000 nM and more than 10000 nM, respectively.
